Test system: HCC827 implanted tumors
Test: Subcutaneous HCC827 xenograft model, groups 3a-3c, o.p.
Details: for Body weight change (%): HCC827 tumor-bearing mice, NSL-8 70 mpk, Tarceva 20 mpk o.p.
[1] = HCC827 model, peripheral blood at end-point

## C#Cc1cccc(Nc2ncnc3cc(OCCOC)c(OCCOC)cc23)c1 [Erlotinib]
Day 3
  Body weight change (%): 0.2%
Day 7
  Body weight change (%): 1.3%
Day 10
  Body weight change (%): 0.6%
Day 14
  Body weight change (%): −0.2%
[1]
  counts of red blood cells: decrease
  total white blood cells and platelets counted versus vehicle: no significant difference
HCC827 model, upon completion of the experiments
  serum levels of BUN, ALT, and AST among treatment groups: no significant difference
